The results in this text go back to article PMC9135303, “Interaction of fungal lipase with potential phytotherapeutics” (PLoS ONE, 2022).

Protein sequences, listed by entry. Tags and fused reporters are not part of them. Residues count along the entry.
UniProt P02768, 25-609: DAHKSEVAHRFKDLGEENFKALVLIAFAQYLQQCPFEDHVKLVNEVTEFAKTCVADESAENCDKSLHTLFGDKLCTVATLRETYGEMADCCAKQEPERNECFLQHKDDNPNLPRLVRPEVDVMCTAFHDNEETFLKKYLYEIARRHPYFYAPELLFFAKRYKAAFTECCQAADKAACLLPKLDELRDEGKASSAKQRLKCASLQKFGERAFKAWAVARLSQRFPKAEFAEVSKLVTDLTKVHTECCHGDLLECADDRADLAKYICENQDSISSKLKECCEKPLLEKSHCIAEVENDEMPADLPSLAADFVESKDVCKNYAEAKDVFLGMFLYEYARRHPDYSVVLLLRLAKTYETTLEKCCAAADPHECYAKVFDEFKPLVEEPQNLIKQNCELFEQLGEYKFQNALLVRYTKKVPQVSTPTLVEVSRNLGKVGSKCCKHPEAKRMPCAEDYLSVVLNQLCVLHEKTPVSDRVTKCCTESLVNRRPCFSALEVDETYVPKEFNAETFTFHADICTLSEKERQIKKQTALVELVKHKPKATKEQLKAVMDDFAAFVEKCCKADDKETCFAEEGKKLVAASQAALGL

The target of assay [1] is HSA (Homo sapiens, UniProt P02768). The assay can be described thus: Intrinsic Trp214 fluorescence quenching of HSA (excitation 280 nm, ligand 50-400 uM, inner-filter corrected), 10 mM phosphate pH 7.4, 298 K; Ka from double-logarithmic plot. The format is binding. More on the design: gene ALB; commercial (Sigma-Aldrich), dialyzed. As to conditions: read-out: Ka(M^-1) (converted). The protocol:
(§1) Lipase and HSA were dialyzed against KCl- buffer (pH 7) for 24 hrs. Stock solution of lipase was prepared in 10 mM phosphate buffer at pH 7.4 to obtain a particular concentration. […] These samples were incubated at 298.0 K for about 24 hrs.
(§2) Fluorescence spectra were recorded on Hitachi F-4010 spectrofluorometer equipped with circulating water bath to maintain the temperature of the cell. The quartz cell of path length 1.0 cm and band slit of 5.0 nm were used for all experiments. The excitation wavelength was 280 nm for lipase and HSA. Emission spectra were recorded from 300–450 nm for lipase and HSA protein.
(§3) Herein, the fluorescence intensities were corrected for absorption of the exciting light and reabsorption of the emitted light to decrease the inner filter effect according to the following equation [10] (Chi & Liu, 2011): Fcorr=Fobs10^Aex+Aem/2, Where Fcorr and Fobs are corrected and experimentally measured fluorescence intensities, respectively. […] The fluorescence intensity utilized in this paper was the corrected intensity.
The fluorescence emission spectra of HSA in the absence and the presence of increasing linalool concentrations (50–400 μM with 50 μM intervals) is shown as Fig 7A. […]
The plot of F0/F against [linalool] at 298K is given as S3A Fig. The values of ksv and kq could be calculated from the slope of curves. […]

Assay [2] concerns the target T1, Human Serum Albumin (HSA) (Homo sapiens, UniProt P02768).
T1 construct: purchased Sigma-Aldrich
Briefly: Far-UV circular dichroism of HSA. To be noted: 24 hours at 298.15 K, pH 7.4, native -17.76. The protocol:
CD spectra were obtained over wavelength range of 200–250 nm on Jasco-1500 CD Spectrometer equipped with peltier type temperature controller. 0.1cm quartz cell were used to measure far UV CD spectrum. The concentration of protein used was 0.2 mg/ml (lipase) and 0.35 mg/ml (HSA). Each spectrum was scanned thrice and finally average of 3 was used to analyse the results.

In assay [3] the target is T1, Human Serum Albumin (HSA). The assay can be described thus: Fluorescence quenching of HSA (Stern-Volmer and double-logarithmic plots). Type of assay: binding. The protocol: as §1, §2, §3
The HSA were excited at 280nm and spectra were taken from 300nm to […].
The plot of F0/F against [linalool] at 298K is given as S3A Fig. The values of ksv and kq could be calculated from the slope of curves. The average lifetime of the fluorophore in the absence of the ligand as 6.38 × 10^−9 s for HSA [23]. […] Ka and ‘n’ were calculated from equation: Log[(F0–F)/F] = logKa + n log[linalool].

In the case of `Cc1ccc(C(C)C)c(O)c1` [thymol], the Kd was 1.04 nM in assay [1] and around 10 nM in assay [3]. For the same compound, in assay [2], the “MRE x 10^3 at 222nm (complex_400 μM)” value is listed as -23.56. In assay [3], the “blue shift in the emission maximum of HSA” value is recorded as 2 nm. Also, the “n (number of binding site)” value in assay [3] (HSA) was 2.41. Also, in assay [3] (HSA, double-logarithmic plot), the “Ka (binding constant)” value amounted to 9.6e+08 M⁻¹.
